According to article PMC12845078 (Pharmaceuticals, 2025):

Experiment: Pharmacokinetics of MT and CBD in rats after pre-administration of ABT
Settings: ABT-model rats, MT + CBD (5 + 20) mg/kg vs MT 5 mg/kg

With COc1ccc2[nH]cc(CCNC(C)=O)c2c1 [MT, Melatonin] the “decrease in AUC(0–t) of MT with CBD vs MT alone” value was “approximately 43%” and the “decrease in Cmax of MT with CBD vs MT alone” value was “approximately 43%”.
